Chains of the proteins cited; added tags and fusions are not shown. Lines headed by an entry give the natural chain unless they say otherwise; changes in a name come on top.
UniProt P42336, whole entry: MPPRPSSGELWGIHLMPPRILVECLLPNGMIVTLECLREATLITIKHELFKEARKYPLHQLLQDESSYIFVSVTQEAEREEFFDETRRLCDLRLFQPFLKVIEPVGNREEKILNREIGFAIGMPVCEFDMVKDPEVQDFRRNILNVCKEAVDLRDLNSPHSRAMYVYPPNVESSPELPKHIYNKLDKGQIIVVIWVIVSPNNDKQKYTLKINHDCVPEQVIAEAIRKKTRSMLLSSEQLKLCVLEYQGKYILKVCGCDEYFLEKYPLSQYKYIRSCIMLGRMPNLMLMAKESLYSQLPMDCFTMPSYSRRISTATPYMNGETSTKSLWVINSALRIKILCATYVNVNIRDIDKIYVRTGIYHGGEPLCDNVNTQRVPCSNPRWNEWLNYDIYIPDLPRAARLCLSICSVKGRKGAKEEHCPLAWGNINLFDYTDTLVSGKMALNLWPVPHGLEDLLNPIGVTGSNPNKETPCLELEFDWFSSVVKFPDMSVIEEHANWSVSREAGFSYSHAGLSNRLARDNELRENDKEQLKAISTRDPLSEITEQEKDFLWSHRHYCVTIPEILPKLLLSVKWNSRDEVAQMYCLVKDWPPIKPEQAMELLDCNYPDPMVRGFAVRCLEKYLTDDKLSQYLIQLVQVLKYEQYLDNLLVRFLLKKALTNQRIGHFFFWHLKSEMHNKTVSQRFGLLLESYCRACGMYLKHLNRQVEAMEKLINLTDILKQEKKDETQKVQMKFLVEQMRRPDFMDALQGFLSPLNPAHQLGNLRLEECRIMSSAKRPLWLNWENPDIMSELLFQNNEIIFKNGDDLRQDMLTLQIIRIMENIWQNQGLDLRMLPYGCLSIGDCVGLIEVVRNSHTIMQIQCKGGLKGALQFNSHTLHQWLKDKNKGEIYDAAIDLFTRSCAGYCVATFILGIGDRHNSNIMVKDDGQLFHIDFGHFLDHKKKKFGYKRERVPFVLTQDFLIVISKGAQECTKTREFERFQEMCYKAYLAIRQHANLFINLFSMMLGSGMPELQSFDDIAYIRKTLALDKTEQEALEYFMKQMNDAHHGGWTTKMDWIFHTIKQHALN
UniProt P42336, whole entry H1047R: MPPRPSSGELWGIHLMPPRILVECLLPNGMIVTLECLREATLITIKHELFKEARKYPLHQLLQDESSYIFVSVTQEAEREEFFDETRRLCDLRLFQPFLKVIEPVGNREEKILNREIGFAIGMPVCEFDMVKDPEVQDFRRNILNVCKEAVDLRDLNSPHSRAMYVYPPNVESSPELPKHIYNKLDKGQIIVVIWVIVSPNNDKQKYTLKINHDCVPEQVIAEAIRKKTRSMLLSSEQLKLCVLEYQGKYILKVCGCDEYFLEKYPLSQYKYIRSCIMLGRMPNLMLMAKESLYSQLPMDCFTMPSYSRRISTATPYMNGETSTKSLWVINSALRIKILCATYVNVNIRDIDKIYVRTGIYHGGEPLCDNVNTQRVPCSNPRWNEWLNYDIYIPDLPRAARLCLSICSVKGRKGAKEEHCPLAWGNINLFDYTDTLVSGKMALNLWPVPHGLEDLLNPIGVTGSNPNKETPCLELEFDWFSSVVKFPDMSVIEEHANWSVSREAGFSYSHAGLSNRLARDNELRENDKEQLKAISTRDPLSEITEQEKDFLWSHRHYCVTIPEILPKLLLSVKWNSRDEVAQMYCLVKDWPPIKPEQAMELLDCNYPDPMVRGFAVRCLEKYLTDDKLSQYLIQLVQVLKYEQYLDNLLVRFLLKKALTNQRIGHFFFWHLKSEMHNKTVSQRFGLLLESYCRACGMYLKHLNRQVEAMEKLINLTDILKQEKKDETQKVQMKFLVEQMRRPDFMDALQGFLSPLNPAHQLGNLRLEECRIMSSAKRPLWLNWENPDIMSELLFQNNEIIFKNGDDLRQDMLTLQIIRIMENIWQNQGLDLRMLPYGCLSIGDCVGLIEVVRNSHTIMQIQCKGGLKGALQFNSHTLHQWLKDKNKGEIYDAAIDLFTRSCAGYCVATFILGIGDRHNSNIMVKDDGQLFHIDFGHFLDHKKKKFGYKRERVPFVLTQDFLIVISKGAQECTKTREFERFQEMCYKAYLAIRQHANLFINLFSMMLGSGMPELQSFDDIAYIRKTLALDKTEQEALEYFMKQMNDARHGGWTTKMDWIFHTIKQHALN
UniProt P27986, whole entry partner: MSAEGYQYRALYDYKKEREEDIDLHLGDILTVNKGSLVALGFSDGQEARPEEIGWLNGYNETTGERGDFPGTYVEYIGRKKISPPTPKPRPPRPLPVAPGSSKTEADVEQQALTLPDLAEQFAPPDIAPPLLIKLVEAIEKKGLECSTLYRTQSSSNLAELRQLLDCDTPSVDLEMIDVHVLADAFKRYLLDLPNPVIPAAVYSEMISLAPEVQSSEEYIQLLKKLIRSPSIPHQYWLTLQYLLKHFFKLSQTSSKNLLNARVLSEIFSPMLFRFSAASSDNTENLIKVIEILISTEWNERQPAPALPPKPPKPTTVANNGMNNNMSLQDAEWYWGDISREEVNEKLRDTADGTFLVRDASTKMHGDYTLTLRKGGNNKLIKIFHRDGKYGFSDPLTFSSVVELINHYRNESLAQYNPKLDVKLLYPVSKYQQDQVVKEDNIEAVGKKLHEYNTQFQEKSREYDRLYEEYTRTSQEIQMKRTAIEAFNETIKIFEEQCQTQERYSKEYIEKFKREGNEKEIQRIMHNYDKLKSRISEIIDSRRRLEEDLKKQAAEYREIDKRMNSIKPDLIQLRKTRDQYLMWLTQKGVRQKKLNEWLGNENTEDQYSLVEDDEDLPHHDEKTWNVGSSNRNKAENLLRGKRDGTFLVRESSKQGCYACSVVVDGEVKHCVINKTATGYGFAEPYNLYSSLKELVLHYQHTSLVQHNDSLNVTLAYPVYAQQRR

In patent publication EP4847511A1, “COMPOUND WITH TRICYCLIC STRUCTURE, PHARMACEUTICAL COMPOSITION THEREOF AND USE THEREOF” (dated 2026):

Assays:
PI3Kα H1047R = PI3Kα H1047R (Homo sapiens, UniProt P42336, H1047R); assay: ADP-Glo Kinase Assay, enzyme activity inhibition of PI3Kα H1047R; settings: read-out: PI3KαH1047R IC50, ATP 25µM, PIP2 50µg/mL, kinase 0.05µg/mL, room temperature 1 hour
Description: (§1) Effect Example IC50 of PI3Kα and PI3KαH1047R enzyme activity inhibition evaluation assay
(§2) The ADP-Glo Kinase Assay Kit was used for the experiments. The following buffer solutions were prepared: 50 mM HEPES, pH 7.5, 3 mM MgCl2, 1 mM EGTA, 100 mM NaCl, 0.03% CHAPS, 2 mM DTT. The tested compound samples were dissolved in DMSO and added to the screening system at a certain starting concentration of, for example, 10 µM, diluted 3-fold, while setting a DMSO control and an unkinase control. The optimal concentrations of PI3Kα, PI3Kα H1047R, substrate (PIP2) and ATP were prepared with buffers. The enzyme reaction system included: buffer, ATP 25µM, kinase substrate (PIP2, 50µg/mL), kinase PI3Kα (0.15µg/mL), PI3Kδ H1047R (0.05µg/mL), etc. The reaction system was reacted at room temperature for 1 hour, then terminated by adding a terminal reagent (ADP-Glo reagent, 5µL), and the ADP content in the system was detected using a detection reagent (Kinase Detection Reagent, 10µL). Signal data was collected using the Envision instrument. Calculated the % inhibition according to the following formula: % inhibition = (DMSO control signal value - sample signal value)/ (DMSO control signal value - unkinase control signal value). Inhibition curves were plotted using the formula Y=Bottom + (Top-Bottom)/(1+(IC50/X)^HillSlope) to obtain IC50 values and the results are as shown in Table 1.
(§3) Result + represents IC50 <= 250nM ++ represents 250 nM < IC50 < = 10µM +++ represents IC50 > 10 µM Table 1

PI3Kα = PI3Kα (Homo sapiens, UniProt P42336); assay: ADP-Glo Kinase Assay, enzyme activity inhibition of PI3Kα; settings: read-out: PI3Kα IC50, ATP 25µM, PIP2 50µg/mL, kinase PI3Kα 0.15µg/mL, room temperature 1 hour
Description: as §1, §2, §3

Compound | IC50 (PI3Kα H1047R) | IC50 (PI3Kα)
N#Cc1ncccc1-c1cc(NC(=O)c2cc(F)cc(C(F)(F)F)c2)c2c3c1CCN3C(=O)NC2c1cc(Cl)c(F)cc1Cl (single isomer, unassigned) [Compound 1-p2] | 250 to 10000 nM | > 10000 nM
COc1cc(-c2cc(NC(=O)c3cc(F)cc(C(F)(F)F)c3)c3c4c2CCN4C(=O)NC3c2cc(F)ccc2Cl)c(C#N)n2ncnc12 (racemic) | < 250 nM | 250 to 10000 nM
Cn1nc2c(-c3ccc4ncnn4c3F)cc(NC(=O)c3cc(F)cc(C(F)(F)F)c3)c3c2c1C(=O)NC3c1cc(F)ccc1Cl (stereo not shown) | < 250 nM | 250 to 10000 nM
Nc1nc2ccc(-c3cc(NC(=O)c4cc(F)cc(C(F)(F)F)c4)c4c5c3CCN5C(=O)NC4c3cc(F)ccc3Cl)c(F)n2n1 (single isomer, unassigned) [Compound 45-p2] | 250 to 10000 nM | 250 to 10000 nM
N#Cc1c(-c2cc(NC(=O)c3cc(F)cc(C(F)(F)F)c3)c3c4c2CCN4C(=O)NC3c2cc(Cl)c(F)cc2Cl)ccc2ncnn12 (single isomer, unassigned) [Compound 23-p1] | 250 to 10000 nM | > 10000 nM
N#Cc1c(-c2cc(NC(=O)c3cc(F)cc(C(F)(F)F)c3)c3c4c2CCN4C(=O)NC3c2cc(F)c(F)cc2Cl)ccc2ncnn12 (single isomer, unassigned) [Compound 36-p1] | 250 to 10000 nM | > 10000 nM
Cn1nc2c(-c3ccc4[nH]nc(F)c4c3C#N)cc(NC(=O)c3cc(F)cc(C(F)(F)F)c3)c3c2c1C(=O)NC3c1cc(F)ccc1Cl (stereo not shown) | < 250 nM | 250 to 10000 nM
N#Cc1c(-c2cc(NC(=O)c3cc(F)cc(C(F)(F)F)c3)c3c4c2CCN4C(=O)NC3c2cc(Cl)c(F)cc2Cl)ccc2ncnn12 (single isomer, unassigned) [Compound 23-p2] | < 250 nM | 250 to 10000 nM
COc1cc(-c2cc(NC(=O)c3cc(F)cc(C(F)(F)F)c3)c3c4c2CCN4C(=O)NC3c2cc(F)ccc2Cl)c(C#N)n2ncnc12 (single isomer, unassigned) | < 250 nM | 250 to 10000 nM
O=C(Nc1cc(F)c2c3c1C(c1cc(Cl)ccc1Cl)NC(=O)N3CC2)c1cc(F)cc(C(F)(F)F)c1 (single isomer, unassigned) [Compound 48-p1] | 250 to 10000 nM | > 10000 nM
N#Cc1c(-c2cc(NC(=O)c3cc(F)cc(C(F)(F)F)c3)c3c4c2CCN4C(=O)NC3c2cc(F)ccc2Cl)cnc2[nH]cnc12 (stereo not shown) | < 250 nM | 250 to 10000 nM
N#Cc1c(-c2cc(NC(=O)c3cc(F)cc(C(F)(F)F)c3)c3c4c2CCN4C(=O)NC3c2cc(F)ccc2Cl)cc(N[C@@H](CS)C(=O)O)c2ncnn12 (stereo partly shown) | < 250 nM | 250 to 10000 nM
Nc1nc2ccc(-c3cc(NC(=O)c4cc(F)cc(C(F)(F)F)c4)c4c5c3CCN5C(=O)NC4c3cc(F)ccc3Cl)c(F)n2n1 (racemic) | < 250 nM | 250 to 10000 nM
Nc1c(F)c(NC(=O)c2cc(F)cc(C(F)(F)F)c2)c2c3c1CCN3C(=O)NC2c1cc(Cl)ccc1Cl (stereo not shown) | < 250 nM | 250 to 10000 nM
